Experimental data published in patent publication US20260384394A1, “(HETERO)ARYL-CARBONYL-HETEROBICYCLIC COMPOUNDS AS INHIBITORS OF PMS2 FOR CANCER AND DEGENERATIVE ILLNESSES” (published 2026).

The chains behind the UniProt entries cited, without tags or fusion partners. Residues count along the entry.
UniProt P54278, 1-365 limits assumed: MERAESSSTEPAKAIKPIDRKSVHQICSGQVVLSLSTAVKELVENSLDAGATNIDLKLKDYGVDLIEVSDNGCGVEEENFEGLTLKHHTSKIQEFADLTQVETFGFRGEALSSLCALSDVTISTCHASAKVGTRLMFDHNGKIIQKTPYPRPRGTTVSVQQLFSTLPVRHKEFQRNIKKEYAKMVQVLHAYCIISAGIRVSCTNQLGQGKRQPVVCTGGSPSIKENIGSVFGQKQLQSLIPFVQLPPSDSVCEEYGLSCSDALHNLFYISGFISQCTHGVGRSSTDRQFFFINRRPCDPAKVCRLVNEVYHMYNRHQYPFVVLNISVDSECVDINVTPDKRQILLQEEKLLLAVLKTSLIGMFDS

Biological target: recombinant N-terminal PMS2 (residues 1-365) (Homo sapiens, UniProt P54278)
Assay: Fluorescence Polarisation Assay for PMS2 (displacement of fluorescent probe compound)
Details: read-out: PMS2 IC50, 10 nM N-terminal PMS2, 5 nM probe compound, pH 7.5, room temperature, 30 min pre-incubation then 1 hour
Description: Fluorescence Polarisation Assay for PMS2
Test compounds, as 10 mM DMSO stocks, were dispensed into a Black Fluotrac 200 384 well medium binding plate (Greiner Bio-One, item number 781076) using a Labcyte Echo acoustic liquid handler. For single point screening, test compounds were added to wells in columns 1-22 whilst DMSO was added to wells in columns 23 and 24 in order to normalise the plate. For potency determination, serial dilutions of test compounds were added to wells in columns 3-22 and DMSO volume was normalised across the plate.
20 μL of a 2× solution (20 nM) of recombinant N-terminal PMS2 (residues 1-365) in assay buffer (25 mM HEPES, pH 7.5, 250 mM NaCl, 10 mM MgCl2, 0.01% Triton X-100, 5 mM Dithiothreitol) was added to all wells in columns 2-23 for potency determination or columns 1-23 for single point screening. 20 μL assay buffer was added to all wells in columns 1 and 24 (column 24 only for single point screening) using a MultiDrop Combi (ThermoFisher). Plates were centrifuged for 1 minute at 250×g and were incubated at room temperature for 30 minutes prior to the addition of 20 μL of 2×(20 nM) of 5-((5-(4-((2-(2,4-dihydroxy-5-isopropylbenzoyl)isoindolin5-yl)methyl)piperazin-1-yl)pentyl)carbamoyl)-2-(6-(dimethylamino)-3-(dimethyliminio)-3H-xanthen-9-yl)benzoate (referred to hereinafter as “probe compound”) in assay buffer (prepared from a 100 μM DMSO stock) with a MultiDrop Combi (ThermoFisher). The final concentration of N-terminal PMS2 was 10 nM and the final concentration of probe compound was 5 nM.
Compound plates were centrifuged for 1 minute at 250×g for 1 minute and were incubated at room temperature for 1 hour before being read on a PheraStar FSX (fitted with 384-well aperture spoon and 540 590 590 FP optic module). The gain and focus were adjusted before each plate was read so that the polarisation of a no enzyme control (column 24) was equal to 35 mP. Data were normalised against the no inhibitor controls (column 23) and no enzyme controls (column 24).

Row | Molecule | IC50
1 | C=CC(=O)N(C)c1ccc2c(c1)CN(C(=O)c1c(O)ccc(C(C)(C)C)c1F)CC2 | 100 to 1000 nM
2 | C=CC(=O)N(C)c1ccc2c(c1)CN(C(=O)c1c(O)cc(O)c(Cl)c1C)CC2 | < 100 nM
3 | C=CC(=O)N(C)c1cc2c(cn1)CCN(C(=O)c1c(O)cc(OC)c(Cl)c1C)C2 | < 100 nM
4 | (E)-4-(Dimethylamino)-N-(2-(2-hydroxy-5-methylbenzoyl)isoindolin-4-yl)but-2-enamide | > 1000 nM
5 | Cc1cc(C(=O)N2Cc3cccc(NC(=O)/C=C/CN(C)C)c3C2)ccc1O | > 1000 nM
6 | CN(C)C/C=C/C(=O)N(C)c1cccc2c1CN(C(=O)c1cc(C(C)(C)C)ccc1O)C2 | > 1000 nM
7 | Cc1cc(C(=O)N2Cc3cccc(NC(=O)/C=C/CN4CCCC4)c3C2)c(O)cc1O | 100 to 1000 nM
8 | CC(C)c1cc(C(=O)N2CCc3ccc(N(C)C(=O)/C=C/CN(C)C)cc3C2)ccc1O | 100 to 1000 nM
9 | Cc1cc(O)cc(O)c1C(=O)N1CCc2ccc(NC(=O)/C=C/CN(C)C)cc2C1 | 100 to 1000 nM
10 | CCc1cc(C(=O)N2Cc3cccc(NC(=O)/C=C/CN(C)C)c3C2)c(O)cc1O | < 100 nM
11 | C=CC(=O)N(C)c1ccc2c(c1)CN(C(=O)c1cc(C(C)C)c(OC)cc1O)CC2 | 100 to 1000 nM
12 | COc1cc(O)c(C(=O)N2Cc3cccc(N(C)C(=O)/C=C/CN(C)C)c3C2)c(C)c1Cl | < 100 nM
13 | CN(C)C/C=C/C(=O)N(C)c1cccc2c1CN(C(=O)c1c(O)c(CO)cc(C(C)(C)C)c1F)C2 | > 1000 nM
14 | Cc1c(O)cc(O)c(C(=O)N2Cc3cccc(N(C)C(=O)/C=C/CN(C)C)c3C2)c1C | < 100 nM
15 | CC(C)c1cc(C(=O)N2Cc3ccc(Cl)c(NC(=O)/C=C/CN(C)C)c3C2)ccc1O | 100 to 1000 nM
16 | CN(C)C/C=C/C(=O)Nc1cccc2c1CN(C(=O)c1c(O)cc(O)cc1C(F)(F)F)C2 | < 100 nM
17 | C=CC(=O)N(C)c1cccc2c1CN(C(=O)c1cc(C(C)C)c(OC)cc1O)C2 | > 1000 nM
18 | CN(C)C/C=C/C(=O)Nc1cccc2c1CN(C(=O)c1cc(C(C)(C)C)c(O)cc1O)C2 | < 100 nM
19 | C=CC(=O)N(C)c1cccc2c1CN(C(=O)c1c(O)cc(O)c(C)c1C)C2 | < 100 nM
20 | COc1cc(O)c(C(=O)N2CCc3ccc(N(C)C(=O)/C=C/CN(C)C)cc3C2)cc1C(C)C | 100 to 1000 nM
21 | CN(C)C/C=C/C(=O)N(C)c1cccc2c1CN(C(=O)c1c(O)cc(O)cc1Cl)C2 | < 100 nM
22 | COc1cc(O)c(C(=O)N2Cc3cccc(NC(=O)/C=C/CN(C)C)c3C2)c(C)c1Cl | < 100 nM
23 | CN(C)C/C=C/C(=O)Nc1cccc2c1CN(C(=O)c1cc3cc[nH]c3cc1O)C2 | 100 to 1000 nM
24 | CN(C)C/C=C/C(=O)N(C)c1ccc2c(c1)CN(C(=O)c1c(O)ccc(C(C)(C)C)c1F)CC2 | 100 to 1000 nM
25 | C=CC(=O)N(CCC1CCN(C)C1)c1cccc2c1CN(C(=O)c1cc(C)c(O)cc1O)C2 (stereo not shown) | 100 to 1000 nM
26 | C=CC(=O)N(C)c1cccc2c1CN(C(=O)c1cc(CC)c(OC)cc1O)C2 | > 1000 nM
27 | CCN(C(=O)/C=C/CN(C)C)c1cccc2c1CN(C(=O)c1cc(C)c(O)cc1O)C2 | < 100 nM

Row | Molecule | IC50
28 | Cc1cc(C(=O)N2Cc3cccc(NC(=O)/C=C/CN4CCC(F)(F)C4)c3C2)c(O)cc1O | 100 to 1000 nM
29 | Cc1c[nH]c2cc(O)c(C(=O)N3Cc4cccc(N(C)C(=O)/C=C/CN(C)C)c4C3)cc12 | 100 to 1000 nM
30 | COc1cc(O)c(C(=O)N2Cc3ccc(C)c(N(C)C(=O)/C=C/CN(C)C)c3C2)cc1C(C)C | 100 to 1000 nM
31 | Cc1cc(O)cc(O)c1C(=O)N1CCc2ccc(N(C)C(=O)/C=C/CN(C)C)cc2C1 | < 100 nM
32 | Cc1cc(C(=O)N2Cc3cccc(N(Cc4ccccc4)C(=O)/C=C/CN(C)C)c3C2)c(O)cc1O | < 100 nM
33 | C/C=C/C(=O)N(C)c1ccc2c(n1)CN(C(=O)c1c(O)cc(OC)c(Cl)c1C)CC2 | > 1000 nM
34 | COc1cc(O)c(C(=O)N2CCc3ccc(N(C)C(=O)/C=C/CN(C)C)cc3C2)c(C)c1Cl | 100 to 1000 nM
35 | Cc1cc(C(=O)N2Cc3cccc(N(C)C(=O)/C=C/CN(C)C)c3C2)c(O)cc1OC(F)F | > 1000 nM
36 | COc1cc(O)c(C(=O)N2CCc3ncc(N(C)C(=O)/C=C/CN(C)C)cc3C2)cc1C(C)C | > 1000 nM
37 | C=CC(=O)N(Cc1ccccc1)c1cccc2c1CN(C(=O)c1cc(C)c(O)cc1O)C2 | 100 to 1000 nM
38 | Cc1cc(C(=O)N2Cc3cccc(N(C)C(=O)/C=C/CN(C)C)c3C2)c(O)cc1O | < 100 nM
39 | C=CC(=O)Nc1cnc2c(c1)CN(C(=O)c1c(O)cc(OC)c(Cl)c1C)CC2 | > 1000 nM
40 | CC(C)c1cc(C(=O)N2Cc3cccc(N(C)C(=O)/C=C/CN(C)C)c3C2)ccc1O | > 1000 nM
41 | C=CC(=O)N(C)c1ccc2c(c1C)CN(C(=O)c1cc(C(C)C)c(OC)cc1O)CC2 | > 1000 nM
42 | CN(C)C/C=C/C(=O)N(C)c1ccc2c(c1)CN(C(=O)c1cc(C(C)(C)C)c(F)cc1O)CC2 | > 1000 nM
43 | CN(C)C/C=C/C(=O)Nc1cccc2c1CN(C(=O)c1ccc(O)cn1)C2 | > 1000 nM
44 | Cc1cc(O)cc(O)c1C(=O)N1Cc2cccc(NC(=O)/C=C/CN(C)C)c2C1 | < 100 nM
45 | C=CC(=O)N(C)c1cc2c(cc1OCCN(C)C)CCN(C(=O)c1cc(C(C)C)c(OC)cc1O)C2 | < 100 nM
46 | CC#CC(=O)N(C)c1cc2c(cc1OCCN(C)C)CCN(C(=O)c1cc(C(C)C)c(OC)cc1O)C2 | > 1000 nM
47 | C=CC(=O)N(C)c1cc2c(cc1Cl)CCN(C(=O)c1cc(C(C)C)c(OC)cc1O)C2 | 100 to 1000 nM
48 | C=CC(=O)N(CCN1CCOCC1)c1cccc2c1CN(C(=O)c1cc(C)c(O)cc1O)C2 | < 100 nM
49 | Cc1cc(C(=O)N2Cc3cccc(NC(=O)/C=C/CN(C)C)c3C2)c(O)cc1O | < 100 nM
50 | C=CC(=O)N(C)c1ccc2c(c1)CN(C(=O)c1cc(C)c(O)cc1O)CC2 | < 100 nM
51 | C=CC(=O)N(CC)c1cccc2c1CN(C(=O)c1c(O)cc(O)c(Cl)c1C)C2 | < 100 nM
52 | COc1cc(O)c(C(=O)N2Cc3ccc(Cl)c(N(C)C(=O)/C=C/CN(C)C)c3C2)cc1C(C)C | 100 to 1000 nM
53 | C=CC(=O)N(C)c1nc2c(cc1C)CCN(C(=O)c1cc(C(C)C)c(OC)cc1O)C2 | < 100 nM
54 | CN(C)C/C=C/C(=O)Nc1cccc2c1CN(C(=O)c1ccc(C(F)F)cc1O)C2 | > 1000 nM

Row | Molecule | IC50
55 | Cc1cc2cc(C(=O)N3Cc4cccc(N(C)C(=O)/C=C/CN(C)C)c4C3)c(O)cc2[nH]1 | > 1000 nM
56 | CN(C)C/C=C/C(=O)N(C)c1cccc2c1CN(C(=O)c1cc(C(C)(C)C)c(F)cc1O)C2 | > 1000 nM
57 | CCN(C(=O)/C=C/CN(C)C)c1cccc2c1CN(C(=O)c1c(O)cc(O)c(Cl)c1C)C2 | < 100 nM
58 | Cc1c(Cl)c(O)cc(O)c1C(=O)N1Cc2cccc(N(C)C(=O)/C=C/CN(C)C)c2C1 | < 100 nM
59 | CC(C)c1ccc(O)c(C(=O)N2Cc3cccc(N(C)C(=O)/C=C/CN(C)C)c3C2)c1 | > 1000 nM
60 | CC(C)c1cc(C(=O)N2Cc3cccc(NC(=O)/C=C/CN(C)C)c3C2)c(O)cc1O | < 100 nM
61 | CCc1cc(C(=O)N2Cc3cccc(N(C)C(=O)/C=C/CN(C)C)c3C2)c(O)cc1OC | > 1000 nM
62 | C=CC(=O)N(CCc1ccncc1)c1cccc2c1CN(C(=O)c1cc(C)c(O)cc1O)C2 | 100 to 1000 nM
63 | Cc1c(O)cc(O)c(C(=O)N2Cc3ccc(Cl)c(N(C)C(=O)/C=C/CN(C)C)c3C2)c1C | < 100 nM
64 | COc1cc(O)c(C(=O)N2Cc3ccc(C)c(N(C)C(=O)/C=C/CN(C)C)c3C2)cc1C(C)(C)C | 100 to 1000 nM
65 | Cc1cc(O)cc(O)c1C(=O)N1Cc2cccc(N(C)C(=O)/C=C/CN(C)C)c2C1 | < 100 nM
66 | CC(C)c1cc(C(=O)N2Cc3cccc(N(C)C(=O)/C=C/CN(C)C)c3C2)c(O)cc1O | < 100 nM
67 | CN(C)C/C=C/C(=O)Nc1cccc2c1CN(C(=O)c1ccc(O)cc1O)C2 [Example 17] | 100 to 1000 nM
68 | COc1ccccc1C(=O)N1Cc2cccc(NC(=O)/C=C/CN(C)C)c2C1 | > 1000 nM
69 | C/C=C/C(=O)N(C)c1ccc2c(c1)CN(C(=O)c1c(O)cc(OC)c(Cl)c1C)CC2 | > 1000 nM
70 | Cc1cc2c(c(N(C)C(=O)/C=C/CN(C)C)c1)CN(C(=O)c1c(O)cc(O)c(C)c1C)C2 | < 100 nM
71 | CN(C)C/C=C/C(=O)Nc1cccc2c1CN(C(=O)c1ccc(O)cc1Cl)C2 | > 1000 nM
72 | Cc1c(O)ccc(C(=O)N2Cc3ccc(Cl)c(NC(=O)/C=C/CN(C)C)c3C2)c1C | 100 to 1000 nM
73 | C=CC(=O)N(CCOC)c1cccc2c1CN(C(=O)c1c(O)cc(O)c(C)c1C)C2 | < 100 nM
74 | COc1cc(C(=O)N2Cc3cccc(NC(=O)/C=C/CN(C)C)c3C2)c(O)cc1O | 100 to 1000 nM
75 | COc1cc(O)c(C(=O)N2Cc3ccc(Cl)c(NC(=O)/C=C/CN(C)C)c3C2)cc1C(C)C | 100 to 1000 nM
76 | COc1cc(O)c(C(=O)N2Cc3cccc(N(C)C(=O)/C=C/CN(C)C)c3C2)cc1C(C)(C)C | > 1000 nM
77 | Cc1cc(C(=O)N2Cc3cccc(N(CCc4ccccn4)C(=O)/C=C/CN(C)C)c3C2)c(O)cc1O | < 100 nM
78 | Cc1cc(O)ccc1C(=O)N1Cc2cccc(NC(=O)/C=C/CN(C)C)c2C1 | > 1000 nM
79 | C=CC(=O)N(C)c1cccc2c1CN(C(=O)c1cc3c(cc1O)NC(=O)C3(C)C)C2 | > 1000 nM
